Measurements from patent publication US6958318B2, “Recombinant bacterial cells for delivery of PNP to tumor cells” (The UAB Research Foundation, priority 1993, dated 2005).
Only a part of the results on these compounds is given; other tests are left out.

Chains of the proteins cited; added tags and fusions are not shown. Residues count along the entry.
UniProt P00491, whole entry: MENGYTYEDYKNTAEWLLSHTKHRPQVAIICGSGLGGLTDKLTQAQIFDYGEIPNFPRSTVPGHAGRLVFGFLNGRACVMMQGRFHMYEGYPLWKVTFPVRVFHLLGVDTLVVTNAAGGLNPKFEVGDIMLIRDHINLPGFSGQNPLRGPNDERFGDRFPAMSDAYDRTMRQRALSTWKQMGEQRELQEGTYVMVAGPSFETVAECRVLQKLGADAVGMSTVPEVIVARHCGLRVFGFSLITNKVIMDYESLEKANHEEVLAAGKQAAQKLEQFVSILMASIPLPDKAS
UniProt P0ABP8, 2-239 limits assumed: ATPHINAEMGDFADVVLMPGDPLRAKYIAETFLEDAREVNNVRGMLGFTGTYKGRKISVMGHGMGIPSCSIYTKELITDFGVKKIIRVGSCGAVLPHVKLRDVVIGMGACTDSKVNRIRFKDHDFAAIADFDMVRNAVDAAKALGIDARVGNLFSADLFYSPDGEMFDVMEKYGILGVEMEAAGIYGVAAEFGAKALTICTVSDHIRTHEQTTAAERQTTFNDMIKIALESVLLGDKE

Key:
human PNP = human PNP (Homo sapiens, UniProt P00491); assay: Cleavage of purine analog nucleosides by human PNP (HPLC); format: biochemical; details: in words
E. coli PNP = E. coli PNP (Escherichia coli, UniProt P0ABP8); assay: Cleavage of purine analog nucleosides by E. coli PNP (HPLC); format: biochemical

## 2-Cl-2′-F-2′-deoxyadenosine
Human PNP
  Substrate quality for mammalian (human) PNP: poor substrates
E. coli PNP; in words
  Substrate quality for bacterial (E. coli) PNP: poor substrates
E. coli PNP; substrate 100 μM, 100 μg/ml enzyme, 25° C., 1 hour, stopped by boiling, parentheses = positive control conversion
  Percent of substrate cleaved by E. coli PNP, 100 μM: 0(86) Percent
E. coli PNP; substrate 1 mM, 25° C., 1 hour, stopped by boiling
  Percent of substrate cleaved by E. coli PNP, 1 mM: 0(21) Percent
